Results: ChEMBL document CHEMBL1124221

Protein sequences, listed by entry. Tags and fused reporters are not part of them.
UniProt P97266, whole entry: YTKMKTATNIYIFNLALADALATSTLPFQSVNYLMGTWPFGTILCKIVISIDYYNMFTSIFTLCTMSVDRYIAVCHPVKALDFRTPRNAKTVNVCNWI

How the values were obtained:
[1] = tested on: Rattus norvegicus; assay: Dose (sc) required to produce 50% of the maximum possible analgesic effect, evaluated by rat-paw pressure assay
[2] = tested on: Rattus norvegicus; assay: Dose (po) required to produce 50% of the maximum possible analgesic effect, evaluated by rat-paw pressure assay
[3] = target: T1, Mu-type opioid receptor (Cavia porcellus, UniProt P97266); assay: Binding affinity for the Opioid receptor mu 1
[4] = target: T1, Mu-type opioid receptor; assay: Binding affinity for the Opioid receptor mu 1; remark: listed apart in the source

CN(C(=O)Cc1cccc2sccc12)[C@@H]1CCCC[C@H]1N1CCCC1.Cl
MPE50 [1]: 10 mg/kg

CN(C(=O)Cc1cccc2occc12)[C@@H]1CCCC[C@H]1N1CCCC1.Cl
MPE50 [2]: 24 mg/kg

CC[C@@]12CCN(CC3CC3)C(C(=O)c3ccc(O)cc31)[C@@H]2C
MPE50 [2]: 70 mg/kg
MPE50 [1]: 0.3 mg/kg

CN(C(=O)Cc1c[nH]c2ccccc12)[C@@H]1CCCC[C@H]1N1CCCC1
MPE50 [1]: >300 mg/kg

CN(C(=O)Cc1cccc2sccc12)[C@@H]1CCCC[C@H]1N1CCCC1
Ki [3]: 1000 nM and 410 nM
Ki [4]: 880 nM

CN(CCc1ccccc1)[C@@H]1CCCC[C@H]1N(C)C(=O)Cc1cccc2sccc12.Cl
MPE50 [2]: >100 mg/kg

Br.CN(C(=O)Cc1cccc2occc12)[C@@H]1CCCC[C@H]1N1CCCC1
MPE50 [2]: 12 mg/kg

CN(C(=O)Cc1ccc(Cl)c(Cl)c1)C1CCCCC1N1CCCC1 (stereo not given)
MPE50 [2]: 43 mg/kg

CN(CCc1cccs1)[C@@H]1CCCC[C@H]1N(C)C(=O)Cc1cccc2sccc12.Cl
MPE50 [2]: >300 mg/kg

CN(C(=O)Cc1ccc(Cl)c(Cl)c1)C1CCC2(CCCO2)CC1N1CCCC1 (stereo not given)
MPE50 [2]: 7.8 mg/kg

CN(C(=O)Cc1cccc2sccc12)[C@@H]1CCCC[C@H]1N1CCCCCC1.Cl
MPE50 [2]: 120 mg/kg
MPE50 [1]: >100 mg/kg

CN(C(=O)Cc1cccc2occc12)[C@@H]1CCCC[C@H]1N1CCCCCC1.Cl
MPE50 [2]: >100 mg/kg

Values joined by “and” are separate entries in the source; they are usually repeats but may differ in a detail not shown here. Equal entries are not always repeated.
